The source of these data is patent publication US8822542B2, “Isoketal scavengers and mitigation of disorders involving oxidative injury” (Vanderbilt University, priority 2005, dated 2014).

Amino acid sequences for entries named in this document (tags omitted).
UniProt Q14524, whole entry, looked up: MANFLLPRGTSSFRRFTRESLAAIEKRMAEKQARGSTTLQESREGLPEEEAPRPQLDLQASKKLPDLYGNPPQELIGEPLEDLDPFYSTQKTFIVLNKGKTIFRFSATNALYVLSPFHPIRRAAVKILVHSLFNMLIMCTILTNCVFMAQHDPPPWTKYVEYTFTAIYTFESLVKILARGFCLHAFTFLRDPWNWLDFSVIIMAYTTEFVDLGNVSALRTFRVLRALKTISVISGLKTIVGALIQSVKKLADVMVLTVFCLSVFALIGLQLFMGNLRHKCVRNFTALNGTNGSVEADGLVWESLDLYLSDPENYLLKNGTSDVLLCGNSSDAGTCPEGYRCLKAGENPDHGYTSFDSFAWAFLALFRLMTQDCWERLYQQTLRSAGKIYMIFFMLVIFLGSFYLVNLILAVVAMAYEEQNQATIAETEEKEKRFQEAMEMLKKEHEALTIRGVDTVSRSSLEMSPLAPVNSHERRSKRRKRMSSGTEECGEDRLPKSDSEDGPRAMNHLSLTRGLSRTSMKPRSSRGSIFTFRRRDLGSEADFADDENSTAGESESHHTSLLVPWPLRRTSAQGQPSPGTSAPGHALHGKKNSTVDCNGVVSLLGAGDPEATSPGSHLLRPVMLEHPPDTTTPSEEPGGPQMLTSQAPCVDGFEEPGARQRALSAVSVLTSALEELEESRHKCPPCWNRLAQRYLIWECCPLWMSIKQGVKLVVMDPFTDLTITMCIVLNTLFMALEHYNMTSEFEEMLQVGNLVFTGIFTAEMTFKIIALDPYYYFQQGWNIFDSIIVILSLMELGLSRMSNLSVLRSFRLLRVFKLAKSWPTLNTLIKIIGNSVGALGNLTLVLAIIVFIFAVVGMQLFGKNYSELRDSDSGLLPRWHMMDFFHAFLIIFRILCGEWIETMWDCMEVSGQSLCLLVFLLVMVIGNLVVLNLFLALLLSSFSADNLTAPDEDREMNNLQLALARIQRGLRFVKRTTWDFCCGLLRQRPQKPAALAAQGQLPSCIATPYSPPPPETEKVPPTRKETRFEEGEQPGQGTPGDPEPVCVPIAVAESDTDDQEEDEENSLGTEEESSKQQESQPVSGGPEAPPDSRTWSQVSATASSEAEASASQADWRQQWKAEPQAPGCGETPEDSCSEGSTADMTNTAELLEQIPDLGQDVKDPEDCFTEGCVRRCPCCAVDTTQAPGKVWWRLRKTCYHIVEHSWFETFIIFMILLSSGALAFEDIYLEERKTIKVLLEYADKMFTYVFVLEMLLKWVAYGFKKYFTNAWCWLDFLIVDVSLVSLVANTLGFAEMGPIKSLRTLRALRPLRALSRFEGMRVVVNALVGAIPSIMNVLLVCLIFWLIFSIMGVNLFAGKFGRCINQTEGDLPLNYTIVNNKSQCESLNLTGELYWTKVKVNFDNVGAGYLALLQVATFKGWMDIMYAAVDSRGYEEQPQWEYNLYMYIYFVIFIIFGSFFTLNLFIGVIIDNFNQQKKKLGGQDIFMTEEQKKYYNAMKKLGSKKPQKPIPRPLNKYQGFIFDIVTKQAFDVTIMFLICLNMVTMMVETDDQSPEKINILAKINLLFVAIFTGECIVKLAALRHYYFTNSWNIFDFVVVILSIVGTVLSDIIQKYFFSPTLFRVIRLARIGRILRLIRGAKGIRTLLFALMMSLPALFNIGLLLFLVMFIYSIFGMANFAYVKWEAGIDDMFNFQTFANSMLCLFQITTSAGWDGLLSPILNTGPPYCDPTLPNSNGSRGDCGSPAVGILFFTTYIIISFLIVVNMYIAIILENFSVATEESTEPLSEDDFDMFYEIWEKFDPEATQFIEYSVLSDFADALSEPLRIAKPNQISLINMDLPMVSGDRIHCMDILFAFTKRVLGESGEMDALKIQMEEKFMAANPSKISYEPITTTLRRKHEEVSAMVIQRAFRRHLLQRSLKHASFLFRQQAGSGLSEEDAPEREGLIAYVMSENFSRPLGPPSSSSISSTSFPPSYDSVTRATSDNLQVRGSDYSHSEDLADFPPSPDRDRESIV

The assay has as its target human cardiac Na channel (hH1, or SCN5A) (Homo sapiens, UniProt Q14524). As to the kind of experiment: Whole-cell Na current recording, wild-type hH1 expressed in HEK-293 cells. Conditions: for P500/P1 (use-dependence): 5 Hz, 500 pulses.

As to `CC(C)(C)OO` [t-BHP, tert-butyl hydroperoxide], the INa decay result is “no effect on INa decay” and the “V1/2 voltage-dependence of activation” value is 42.4±1.5 mV. For the same molecule, for the setting “alone, flecainide 1 μM, IsoK 10 μM”, the “P500/P1 (use-dependence)” value was found to be 0.95±0.04. For the same molecule, the “P500/P1 (use-dependence)” value (in the presence of flecainide 1 μM) is given as 0.72±0.05. In addition, the “hyperpolarization of V1/2” value (30 mins preincubation) stood at 7 mV. The “V1/2 voltage-dependence of inactivation (availability)” value (HEK-293, t-BHP 1 mM, Iso-K 10 μM, flecainide 1 μM) is given as −93.9±1.9 mV. Moreover, the “activation of sodium channels” value (over a range of membrane potentials) is on record as “no effect on the activation”.
